# Test results published in article PMC4593394 (ACS chemical biology, 2015).
# System: HEK293 cells expressing p97-C522A
# Test: Cytotoxicity
# Format: cell-based
# Conditions: HEK293, MTT assay, eight-point dose response
smiles,measurement,value
"CC1=C(CO)C(=O)O[C@@H]([C@@H](C)[C@H]2CC[C@H]3[C@@H]4C[C@H]5O[C@]56[C@@H](O)C=CC(=O)[C@]6(C)[C@H]4CC[C@]23C)C1 [Compound 1, withaferin A]",shift of cytotoxicity IC50 when p97-C522A is expressed versus wt-p97,no statistically significant rescue
